The assay addresses T1, LRRC58-EloB/C complex (human | , UniProt Q96CX6 1-371; Q15370 1-118; Q15369 1-112).
T1 construct: LRRC58, BC-box substrate receptor; Elongin B (EloB), untagged; Elongin C (EloC), untagged; also called LRRC58 with Elongin B and Elongin C; source: Trichoplusia ni High Five insect cells, coexpressed, purified (Strep-Tactin, 3C cleavage, anion exchange, SEC); not shown: TwinStrep, N-terminal, cleaved; copies: + +
Briefly: SEC; purified CDO1 mixed with LRRC58-EloB/C, and further with CUL2-RBX1 or CUL5-RBX2; co-migration by size-exclusion chromatography. To be noted: both partners purified. (Size exclusion chromatography separates by hydrodynamic size, large species first.)

B1: cysteine dioxygenase type 1 (CDO1), wild type (enzyme, human, UniProt Q16878 1-200, looked up)
chain: MEQTEVLKPRTLADLIRILHQLFAGDEVNVEEVQAIMEAYESDPTEWAMYAKFDQYRYTRNLVDQGNGKFNLMILCWGEGHGSSIHDHTNSHCFLKMLQGNLKETLFAWPDKKSNEMVKKSERVLRENQCAYINDSIGLHRVENISHTEPAVSLHLYSPPFDTCHAFDQRTGHKNKVTMTFHSKFGIRTPNATSGSLENN
notes: cysteine dioxygenase type 1 (CDO1), wild type; also called WT CDO1; Cy5-CDO1
As for B1, the binding result is listed as “binds”.
